In ChEMBL document CHEMBL4649982, “Selective targeting of Bromodomains of the Bromodomain-PHD Fingers family impairs osteoclast differentiation” (ACS Chem Biol, 2017):

Molecular target: T1, Bromodomain-containing protein 1 (Homo sapiens) (UniProt O95696)
T1 sequence (whole entry): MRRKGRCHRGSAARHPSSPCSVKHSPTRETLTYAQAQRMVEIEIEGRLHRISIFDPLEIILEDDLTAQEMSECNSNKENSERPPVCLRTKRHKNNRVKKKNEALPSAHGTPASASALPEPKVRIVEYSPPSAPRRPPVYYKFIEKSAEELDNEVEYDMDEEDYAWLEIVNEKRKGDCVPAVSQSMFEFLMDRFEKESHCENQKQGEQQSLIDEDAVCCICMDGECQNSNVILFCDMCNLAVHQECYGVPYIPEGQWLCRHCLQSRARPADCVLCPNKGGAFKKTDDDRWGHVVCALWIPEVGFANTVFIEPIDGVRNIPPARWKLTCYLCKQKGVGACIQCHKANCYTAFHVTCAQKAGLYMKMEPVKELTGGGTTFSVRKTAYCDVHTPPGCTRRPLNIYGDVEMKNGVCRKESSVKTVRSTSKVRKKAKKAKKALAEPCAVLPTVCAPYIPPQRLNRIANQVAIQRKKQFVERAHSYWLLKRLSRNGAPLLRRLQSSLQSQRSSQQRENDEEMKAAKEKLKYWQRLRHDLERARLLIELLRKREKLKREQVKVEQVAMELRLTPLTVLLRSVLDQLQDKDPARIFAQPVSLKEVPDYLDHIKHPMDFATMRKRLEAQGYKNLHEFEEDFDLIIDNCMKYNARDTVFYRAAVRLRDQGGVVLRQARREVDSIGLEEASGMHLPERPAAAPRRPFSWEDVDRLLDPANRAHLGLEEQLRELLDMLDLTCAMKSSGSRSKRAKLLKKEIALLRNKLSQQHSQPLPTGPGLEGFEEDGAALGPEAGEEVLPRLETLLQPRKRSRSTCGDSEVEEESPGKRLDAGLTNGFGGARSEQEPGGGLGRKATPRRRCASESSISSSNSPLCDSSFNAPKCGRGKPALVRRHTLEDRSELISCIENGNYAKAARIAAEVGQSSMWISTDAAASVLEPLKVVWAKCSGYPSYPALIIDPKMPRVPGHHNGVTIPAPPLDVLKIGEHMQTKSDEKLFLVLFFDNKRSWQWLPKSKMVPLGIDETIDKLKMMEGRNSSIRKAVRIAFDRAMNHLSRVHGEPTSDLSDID
Conditions: Compound concentration 10.0 uM, Protein concentration 2.0 uM

ΔTm: 3.27 °C
SMILES: COc1cc2c(cc1NS(=O)(=O)c1ccc(Br)cc1C)n(C)c(=O)n2C
